Data from ChEMBL document CHEMBL4229413, “Identification by Inverse Virtual Screening of magnolol-based scaffold as new tankyrase-2 inhibitors” (Bioorg Med Chem, 2018).

Species on record: Homo sapiens
Experiment: Selectivity ratio of Kd for recombinant human N-terminal GSt-tagged TNKS1 (1000 to 1328 residues) expressed in baculovirus infected Sf9 cells to Kd for recombinant human N-terminal His-tagged TNKS2 (Ser959 to Gly1166 residues) expressed in Escherichia coli

Compound: C=CCc1cc(O)c(O)c(-c2cc(CC=C)cc(OC)c2O)c1
- Selectivity ratio: 25
